Test results: patent US20220135628A1 (OXFORD UNIVERSITY INNOVATION, published 2022)

Biological target: SpyTag003-MBP
Test: SDS-PAGE with sfGFP fluorescence, pH 7.0, 25 C

Row | Binder | Rate constant (second-order, isopeptide bond formation)
1 | SpyCatcher-sfGFP (designed binder, not shown: super-folder GFP (sfGFP)) VDTLSGLSSEQGQSGDMTIEEDSATHIKFSKRDEDGKELAGATMELRDSSGKTISTWISDGQVKDFYLYPGKYTFVETAAPDGYEVATAITFTVNEQGQVTVNGKATKGDAHI | 39000 M⁻¹ s⁻¹
2 | SpyCatcher002-sfGFP (designed binder, not shown: super-folder GFP (sfGFP)) VTTLSGLSGEQGPSGDMTTEEDSATHIKFSKRDEDGRELAGATMELRDSSGKTISTWISDGHVKDFYLYPGKYTFVETAAPDGYEVATAITFTVNEQGQVTVNGEATKGDAHT | 130000 M⁻¹ s⁻¹
